Results on three substances are retold here after patent US8613905B2, “Diagnostic agent” (United Arab Emirates University, priority 2007, dated 2013).

Entries after “also recorded” stand apart in the source; their conditions may differ. Read-outs that look alike come from different tables or passages of the source.

For series [1] the following is noted: for brain regions stained (summary): OR6 and 7 at higher dose than OR5.
Assay in series [2]: not given
The source holds these as a separate data set.

The conditions of series [3]: first mouse, 0.20 ml of 0.4 mg/ml, 0.165 μmol Gd.
The target in series [4] is T1, Lewy Bodies (LBs) in post-mortem brain (Homo sapiens, UniProt P37840).
T1 construct: aggregates of native α-synuclein in human brain lysates; from tissue; host or cells: post-mortem human brain (frontal cerebral cortex lysates of control, AD and DLB patients; PD and DLB brain sections)
The series can be described thus: Staining of post-mortem brain sections (fluorescence microscopy). The note with it: 0.05 mg/ml; cryostat sections of fresh frozen post-mortem PD brains; Avidin-FITC; FIG. 12B. It is filed as binding. On the procedure: Binding of the peptides was investigated using 5 mm wax sections of formalin-fixed post-mortem PD and DLB brains, or cryostat sections of the fresh frozen brains. The sections were first immunostained with anti-α-synuclein antibody (MAb 211 or FL-140) as control and then compared under the microscope to successive sections incubated with the tested peptides, and peroxidase-avidin, to determine whether Lewy Bodies (LBs) in post-mortem brain are labelled by the peptides.
Brain sections were immersed in water and placed on slides, then incubated in xylene for 5 min. The xylene was exchanged, and slides incubated for a further 5 min, prior to quenching of endogenous peroxidase activity by incubation with 3% hydrogen peroxide in methanol at room temperature for 30 min. Slides were then washed with the following: 100% ethanol 5 min, 100% ethanol 5 min, 90% ethanol 5 min, 70% ethanol 5 min, formic acid 5 min, 70% ethanol 5 min, distilled water (3 changes) 5 min, PBS 5 min. The slides were incubated in blocking buffer (Vector Labs) for 90 min at 37° C., and washed in PBS for 5 min. […]
The binding of the peptides on 5 mm cryostat sections of fresh frozen post-mortem PD brains was then assessed. […] Slides were then mounted and viewed under fluorescence microscope.

The mark [5] stands for this setting: 2nd mouse, 0.15 ml of 0.4 mg/ml (0.124 μmol Gd) iv, A=15 min after injection as printed.
Where [6] appears, read: 2nd mouse, 0.15 ml of 0.4 mg/ml (0.124 μmol Gd) iv, B=before injection as printed.
Where [7] appears, read: after injection, mouse 3, 0.150 mg (0.0618 μmol of Gd) iv.
The mark [8] stands for this setting: before injection, mouse 3, 0.150 mg (0.0618 μmol of Gd) iv.
Setting [9] is: before injection, mouse 4, 0.050 mg (0.0206 μmol of Gd) iv.
[10] abbreviates: first T1 map after injection, mouse 4, 0.050 mg (0.0206 μmol of Gd) iv.
[11] abbreviates: second map started 55 min after injection, mouse 4, 0.050 mg (0.0206 μmol of Gd) iv.

For “Gd-DOTA-r-Sar-vva-Sar-K(biotin)-butadiamine [OR6]”, in series [1] (mice, iv 100 μg/100 μl), the “brain staining 5 and 15 mins after injection” value was “Weak but specific staining was also observed in the hypothalamus, thalamus and the periphery of the cerebellum”; the “brain staining 30 post-injection” value was “the staining in the thalamus and the midbrain becomes stronger and staining was also observed in the hippocampus”; the “brain staining 5 mins post-injection” value is “crossed the BBB and stained quite strongly in the midbrain”; the “brain staining (hippocampus, midbrain, hypothalamus) 1 hr after injection” value is “maintained at 1 hr after injection and additionally staining was observed in the hypothalamus”. In addition, the “time of peak staining in the cerebellum post-injection” value in series [1] (mice, iv 100 μg/100 μl) worked out at 30 min. The “brain regions stained (summary)” value in series [1] (normal mice, iv) is on record as “preferentially stained in the hypothalamus while displaying stronger staining in the thalamus, midbrain, as well as the hippocampus”. Also, the “mean T1 value, CPu, A3d” value (Caudate Putamen, A3d=3 days after the injection, mouse, 0.3 mg (0.18 μmmol Gd) iv) was found to be 1705. The “mean T1 value, CPu, A” value (Caudate Putamen, A=15 min after injection, mouse, 0.3 mg (0.18 μmmol Gd) iv) worked out at 1008. Further, the “mean T1 value, CPu, B” value (Caudate Putamen, B=before injection, mouse, 0.3 mg (0.18 μmmol Gd) iv) is reported as 1747. In addition, the “mean T1 value, DpMe, A3d” value (Deep Mesenchephalic nucleus, A3d=3 days after the injection, mouse, 0.3 mg (0.18 μmmol Gd) iv) came out at 1532. Besides, the “mean T1 value, DpMe, A” value (Deep Mesenchephalic nucleus, A=15 min after injection, mouse, 0.3 mg (0.18 μmmol Gd) iv) is 940. Besides, the “mean T1 value, DpMe, B” value (Deep Mesenchephalic nucleus, B=before injection, mouse, 0.3 mg (0.18 μmmol Gd) iv) was determined as 1630. Where the note is “Hippocampus, A3d=3 days after the injection, mouse, 0.3 mg (0.18 μmmol Gd) iv”, the “mean T1 value, Hippo, A3d” value was found to be 1752. The “mean T1 value, Hippo, A” value (Hippocampus, A=15 min after injection, mouse, 0.3 mg (0.18 μmmol Gd) iv) stood at 1045. For the same substance, the “mean T1 value, Hippo, B” value (Hippocampus, B=before injection, mouse, 0.3 mg (0.18 μmmol Gd) iv) was found to be 1771. Moreover, the “T1 signals 3 days after injection” value (mouse, 0.3 mg in 0.15 ml saline iv) is “recovered to normal”. Besides, the “change of T1 values after injection” value (mouse, 0.3 mg in 0.15 ml saline iv, CPu, Hippo, DpMe) was “decreased significantly in all regions”.
Take “Gd-DOTA-r-Sar-vva-Sar-K(biotin)-pentadiamine [OR7]”: the “brain regions stained (summary)” value in series [1] (normal mice, iv) is given as “preferentially stained in the hypothalamus while displaying stronger staining in the thalamus, midbrain, as well as the hippocampus”. Besides, the “MRI signal after bolus injection (BBB crossing)” value in series [2] (normal rats, iv 2 mg in 0.1 ml PBS, 0.0012 mmol of Gd, whole brain, FIG. 14B) is listed as “a signal increase was detected that demonstrated that OR7 has crossed the BBB”. Also, the “retention in the brain (bolus tracking)” value in series [2] (rat, 0.0012 mmolGd and 2 mg peptide) is “retention of OR7 in the brain”.
With “Gd-DOTA-r-Sar-vva-Sar-K(biotin)-rrrrrr [OR5]”, in series [1] (mice, iv 50 μg/200 μl), the “brain staining 5 mins post-injection” value is “weak and diffuse pattern of staining was observed across the thalamus, the midbrain and the cerebellum”; the “brain staining 10 mins post-injection” value is “staining had spread into the hippocampus, the pons as well as the thalamus”; the “brain staining 15 mins post-injection” value is “staining appeared in the brainstem including the midbrain and the pons, as well as the thalamus”; the “brain staining (brainstem, thalamus) up to 30 mins post-injection” value is “Staining in these areas was maintained”. The “cerebellum staining 30 mins post-injection” value in series [1] (mice, iv 50 μg/200 μl) is recorded as “spread across the entire cerebellar regions including its interior”. Also, in series [1] (normal mice, iv), the “staining / clearance in the cerebellum at 1 hr post-injection” value was “might be getting cleared from the cerebellum after 1 hr”; the “brain regions stained (summary)” value is “staining was observed in thalamus, midbrain, brain stem and hippocampus”. For the same substance, under setting [5], the “T1 value, CPu, column headed A” value was determined as 1930; the “T1 value, DpMe, column headed A” value was found to be 1612; the “T1 value, Hippo, column headed A” value was determined as 1979. Moreover, under setting [6], the “T1 value, CPu, column headed B” value was 1894; the “T1 value, DpMe, column headed B” value amounted to 1599; the “T1 value, Hippo, column headed B” value is 1923. The “change of T1 values after injection” value (2nd mouse, 0.15 ml of 0.4 mg/ml, 0.124 μmol Gd, three segmented regions) is “slight decrease of the T1 values”. In addition, under setting [7], the “T1 value, CPu, mouse 3, A” value was 1673; the “T1 value, DpMe, mouse 3, A” value was 1462; the “T1 value, Hippo, mouse 3, A” value is 1759. Also, under setting [8], the “T1 value, CPu, mouse 3, B” value was 1694; the “T1 value, DpMe, mouse 3, B” value is 1514; the “T1 value, Hippo, mouse 3, B” value is on record as 1783. Under setting [9], the “T1 value, CPu, mouse 4, B” value is 1640; the “T1 value, DpMe, mouse 4, B” value is on record as 1457; the “T1 value, Hippo, mouse 4, B” value amounted to 1787. For the same substance, under setting [10], the “T1 value, CPu, mouse 4, A1” value is reported as 1627; the “T1 value, DpMe, mouse 4, A1” value turned out to be 1460; the “T1 value, Hippo, mouse 4, A1” value stood at 1786. Moreover, under setting [11], the “T1 value, CPu, mouse 4, A2” value turned out to be 1633; the “T1 value, DpMe, mouse 4, A2” value is 1479; the “T1 value, Hippo, mouse 4, A2” value amounted to 1781. Further, the “MRI signal after bolus injection (BBB crossing)” value in series [3] is on record as “a first passage was visible after injection as well as an increase of the signal afterwards”. Besides, the “staining of Lewy Bodies” value in series [4] is “specific staining to the LBs; also recorded: labelled”.
